Earlier results in publication PMC7442691 (Nature chemical biology, 2020).

Protein sequences, listed by entry. Tags and fused reporters are not part of them.
UniProt Q13526, whole entry: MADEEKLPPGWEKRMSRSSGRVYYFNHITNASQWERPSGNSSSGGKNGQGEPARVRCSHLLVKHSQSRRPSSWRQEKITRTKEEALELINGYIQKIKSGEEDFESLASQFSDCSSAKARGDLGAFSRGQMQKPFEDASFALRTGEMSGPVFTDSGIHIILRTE

Molecular target: Pin1 (Homo sapiens, UniProt Q13526)
Conditions: cited from earlier work

## Ac-Phe-D-pThr-Pip-Nal-Gln-NH2 [D-PEPTIDE]
  Ki: 20 nM
